Laboratory results published in patent US6506751B1, “Thiazolidinone compounds useful as chemokine inhibitors” (Millennium Pharmaceuticals, Inc., priority 1999, dated 2003).
pIC50: −log10 of the molar value.

By UniProt entry, the sequences of proteins in these tests, tags left out.
UniProt P51681, whole entry: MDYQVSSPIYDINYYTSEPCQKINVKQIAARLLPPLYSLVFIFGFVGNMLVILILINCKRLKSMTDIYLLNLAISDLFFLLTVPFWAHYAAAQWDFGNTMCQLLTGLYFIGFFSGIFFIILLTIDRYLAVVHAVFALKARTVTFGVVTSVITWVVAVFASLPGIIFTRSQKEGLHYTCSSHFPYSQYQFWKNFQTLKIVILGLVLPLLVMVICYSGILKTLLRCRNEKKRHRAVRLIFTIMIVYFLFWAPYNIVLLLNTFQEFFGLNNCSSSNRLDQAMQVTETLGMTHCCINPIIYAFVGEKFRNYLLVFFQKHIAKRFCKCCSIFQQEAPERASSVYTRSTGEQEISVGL

Biological target: CCR-5 receptor (Homo sapiens, UniProt P51681)
Test: 125I-gp120/sCD4/CCR-5 binding assay (CCR-5 receptor binding assay)
Details: block of 125I-gp120 (HIV-1 JR-FL)/sCD4 binding to membranes from CCR-5/L 1.2 cells; tested form: 0.67 H2O
Protocol: The ^125I-gp120/sCD4/CCR-5 binding assay is carried out similarly as described in Wu et al., Nature, 1996;384:179-183. Briefly, the envelope gp120 protein derived from HIV-1 JR-FL (Trkola et al., Nature, 1996;384:184-186), a M-tropic strain, is iodinated using solid phase lactoperoxidase to a specific activity of 20 μCi/μg. For each binding reaction (in a final volume of 100 μL binding buffer [50 mM HEPES, pH 7.5, 1 mM CaCl2, 5 mM MgCl2, and 0.5% BSA]), 25 μL (2.5 μg) of membranes prepared from CCR-5/L 1.2 cells are mixed with 25 μL (3 nM) sCD4, followed by 25 μL (0.1 nM) radiolabeled gp120 in the presence or absence of 25 μL compound dissolved in DMSO (final concentration of DMSO 0.5%). The reactions are incubated at room temperature for 45 to 60 minutes and stopped by transferring the mixture to GFB filter plates, which are then washed 3 to 4 times with binding buffer containing 0.5 M NaCl. The plates are dried and MicroScint scintillation fluid is added before counting.

pIC50: 7.15
SMILES: O=C1C(=Cc2cccnc2)SC(c2cccc(Cl)c2)N1CCCN1CCCCC1 (stereo not shown)
